# Reference: patent US7725174B2 (priority 2006, dated 2010)
# Tested on: human volunteer subjects
# Experiment: Propofol/remifentanil drug interaction study, stepwise target concentrations until no response to laryngoscopy
# Conditions: 2nd trial, propofol combined with remifentanil vs propofol alone, one study subject (FIG. 4)
compound,measurement,value
CC(C)c1cccc(C(C)C)c1O [propofol],decrease in propofol required to block the laryngoscopy response,6 ×
